Test results reported in the NIST ThermoML archive (doi:10.1016/j.jct.2019.04.018).
Numbers after ± are expanded uncertainties.

Tests used:
[1] = xn = mol fraction of the nth substance listed; conditions: 100 kPa, Liquid, x2 = 0; for viscosity: Capillary tube (Ostwald / Ubbelohde) method; for speed of sound: Frequency=2 MHz, Single path-length method; for mass density: Vibrating tube method
[2] = 100 kPa, Liquid; for viscosity: Capillary tube (Ostwald / Ubbelohde) method; for speed of sound: Frequency=2 MHz, Single path-length method; for mass density: Vibrating tube method

SMILES	viscosity ([1]; 303.15 K)	speed of sound ([1]; 303.15 K)	mass density ([1]; 303.15 K)	viscosity ([1]; 308.15 K)	speed of sound ([1]; 308.15 K)	mass density ([1]; 308.15 K)	viscosity ([1]; 313.15 K)	speed of sound ([1]; 313.15 K)	mass density ([1]; 313.15 K)	viscosity ([2]; 303.15 K)	speed of sound ([2]; 303.15 K)	mass density ([2]; 303.15 K)	viscosity ([2]; 308.15 K)	speed of sound ([2]; 308.15 K)	mass density ([2]; 308.15 K)	viscosity ([2]; 313.15 K)	speed of sound ([2]; 313.15 K)	mass density ([2]; 313.15 K)
CCCCOCCCC [dibutyl ether] + C=COC(C)=O	0.602 ± 0.015 mPa·s	1144 ± 5 m/s	759.6 ± 1.1 kg/m3	0.564 ± 0.015 mPa·s	1128 ± 5 m/s	755.2 ± 1.1 kg/m3	0.529 ± 0.014 mPa·s	1114 ± 5 m/s	750.8 ± 1.1 kg/m3	–	–	–	–	–	–	–	–	–
CCCCOCCCC [dibutyl ether]	–	–	–	–	–	–	–	–	–	0.602 ± 0.015 mPa·s	1144 ± 5 m/s	759.6 ± 1.1 kg/m3	0.564 ± 0.015 mPa·s	1128 ± 5 m/s	755.2 ± 1.1 kg/m3	0.529 ± 0.014 mPa·s	1114 ± 5 m/s	750.8 ± 1.1 kg/m3
